Like-named read-outs stand apart in the source and are kept apart here.
What was measured:
JAK1 = JAK1 (Homo sapiens (Human), UniProt P23458); experiment: Jak Biochemical HTRF Assay, JAK1
Description: (§1) Jak Biochemical HTRF Assay Protocol
(§2) Subsequent reagent additions employed an Agilent Bravo.

By UniProt entry, the sequences of proteins in these tests, tags left out. Residues count along the entry.
UniProt P23458, 875-1153: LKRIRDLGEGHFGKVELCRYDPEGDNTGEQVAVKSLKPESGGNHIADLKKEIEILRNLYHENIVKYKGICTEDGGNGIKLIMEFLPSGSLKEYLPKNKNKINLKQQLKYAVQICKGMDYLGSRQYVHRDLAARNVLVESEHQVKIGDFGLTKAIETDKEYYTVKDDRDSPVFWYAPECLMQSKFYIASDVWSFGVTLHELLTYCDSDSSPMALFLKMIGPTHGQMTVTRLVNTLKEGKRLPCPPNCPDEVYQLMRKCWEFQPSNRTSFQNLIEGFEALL
UniProt O60674, 849-1124: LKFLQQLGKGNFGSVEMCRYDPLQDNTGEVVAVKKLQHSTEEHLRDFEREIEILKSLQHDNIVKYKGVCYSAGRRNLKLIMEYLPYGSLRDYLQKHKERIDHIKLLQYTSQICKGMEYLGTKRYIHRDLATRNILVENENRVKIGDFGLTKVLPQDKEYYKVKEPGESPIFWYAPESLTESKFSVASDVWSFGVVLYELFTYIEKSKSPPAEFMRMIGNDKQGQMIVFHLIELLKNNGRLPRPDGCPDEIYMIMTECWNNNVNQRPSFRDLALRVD

JAK2 = JAK2 (Homo sapiens (Human), UniProt O60674); experiment: Jak Biochemical HTRF Assay, JAK2
Description: as §1, §2

[1] = HTRF biochemical assay, GST-tagged catalytic domain, top concentration tested […]

C[C@H]1CN(C(=O)OC(C)(C)C)CC[C@]1(CC#N)n1cc(C(N)=O)c(Nc2ccccc2)n1 (single isomer, unassigned) [Example 48-2, tert-Butyl (3S,4R or 3R,4S)-4-[4-carbamoyl-3-(phenylamino)-1H-pyrazol-1-yl]-4-(cyanomethyl)-3-methylpiperidine-1-carboxylate]
IC50 (JAK1; [1]): 0.113 µM

N#CCC1(n2cc(C(N)=O)c(Nc3ccc(F)cc3)n2)CCN(c2ccc(F)nc2)CC1 [Example 3-22, 1-[4-(cyanomethyl)-1-(6-fluoropyridin-3-yl)piperidin-4-yl]-3-[(4-fluorophenyl)amino]-1H-pyrazole-4-carboxamide]
IC50 (JAK2; [1]): 0.012 µM

N#CCC1(n2cc(C(N)=O)c(Nc3ccccc3)n2)CCOCC1 [Example 6-5, 1-[4-(cyanomethyl)tetrahydro-2H-pyran-4-yl]-3-(phenylamino)-1H-pyrazole-4-carboxamide]
IC50 (JAK1; [1]): 0.013 µM

N#CCC1(n2cc(C(N)=O)c(Nc3ccnc(F)c3)n2)CCN(C(=O)OC2CCOC2)CC1 (stereo not shown) [Example 30-16, tetrahydrofuran-3-yl 4-{4-carbamoyl-3-[(2-fluoropyridin-4-yl)amino]-1H-pyrazol-1-yl}-4-(cyanomethyl)piperidine-1-carboxylate]
IC50 (JAK2; [1]): 0.038 µM

N#CCC1(n2cc(C(N)=O)c(Nc3ccc(F)cc3)n2)CCC(Nc2cccc(Cl)c2)CC1 (stereo not drawn) [Example 40-46, Cis or trans 1-{4-[(3-chlorophenyl)aminol-1-(cyanomethyl)cyclohexyl}-3-[(4-fluorophenyl)amino]-1H-pyrazole-4-carboxamide]
IC50 (JAK2): 0.06 µM | IC50 (JAK1): 0.001 µM

N#CC[C@]1(n2cc(C(N)=O)c(Nc3ccc(F)cc3)n2)CC[C@H](n2cc(C3CC3)nn2)CC1 [Example 44-1, cis or Trans 1-[1-(cyanomethyl)-4-(4-cyclopropyl-1H-1,2,3-triazol-1-yl)cyclohexyl]-3-[(4-fluorophenyl)amino]-1H-pyrazole-4-carboxamide]
IC50 (JAK1): 0.155 µM
